# According to patent US4619823A, “Radioactive iodine labeled metaraminol and diagnostic agent containing platelets labeled therewith” (Nihon Medi-Physics Co., Ltd., priority 1983, dated 1986):
# Test system: platelets
# Experiment: Take up rate of radioiodine-labeled metaraminol into platelets in coexistence with a medical compound
# Conditions: Platelet, read-out: Take up rate of ^125 I-labeled metaraminol into platelets
Structure (SMILES),activity at 10 µM [%],activity at 0.1 µM [%]
CC1OC(OC2CC(O)C3(CO)C4C(O)CC5(C)C(C6=CC(=O)OC6)CCC5(O)C4CCC3(O)C2)C(O)C(O)C1O (centres unmarked) [Quabain],58.7 ± 10.2,
COC(=O)[C@H]1[C@H]2C[C@@H]3c4[nH]c5cc(OC)ccc5c4CCN3C[C@H]2C[C@@H](OC(=O)c2cc(OC)c(OC)c(OC)c2)[C@@H]1OC [Reserpine],,47.3 ± 6.1
